Assay results taken from patent publication US10029993B2, “Disubstituted 1, 2, 4-triazine compound” (MITSUBISHI TANABE PHARMA CORPORATION, priority 2014, dated 2018).

By UniProt entry, the sequences of proteins in these tests, tags left out. Residues count along the entry.
UniProt P19099, 25-503 limits assumed: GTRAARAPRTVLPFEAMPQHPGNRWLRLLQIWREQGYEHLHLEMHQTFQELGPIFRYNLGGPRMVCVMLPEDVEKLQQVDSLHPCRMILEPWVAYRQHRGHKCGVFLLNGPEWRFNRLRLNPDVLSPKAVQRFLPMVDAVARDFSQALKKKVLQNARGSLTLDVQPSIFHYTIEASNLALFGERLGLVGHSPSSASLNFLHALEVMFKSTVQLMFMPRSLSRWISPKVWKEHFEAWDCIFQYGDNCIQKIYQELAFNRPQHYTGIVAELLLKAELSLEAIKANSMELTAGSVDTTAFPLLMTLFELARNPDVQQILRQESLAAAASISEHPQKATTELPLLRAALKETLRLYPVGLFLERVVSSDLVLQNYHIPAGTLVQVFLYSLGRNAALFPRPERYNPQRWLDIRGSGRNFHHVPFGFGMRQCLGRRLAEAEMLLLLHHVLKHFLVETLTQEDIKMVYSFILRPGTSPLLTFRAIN

Target: human CYP11B2 (Homo sapiens (Human), UniProt P19099)
Assay: Inhibitory effect on hCYP11B2 (aldosterone production by mitochondrial fraction of V79 cells stably expressing human CYP11B2, HTRF)
Details: read-out: hCYP11B2 IC50, 0.5 μmol/L deoxycorticosterone, 150 μmol/L NADPH, 1.5-2 hours at room temperature

SMILES	IC50 [nM]
CC(=O)N[C@H]1CC[C@H](NC(=O)CN2CCN(c3nncc(-c4ccc(F)cc4)n3)CC2)CC1	4.9
CC(=O)N[C@@H]1CCC[C@H](NC(=O)CN2CCN(c3nncc(-c4ccc(F)cc4)n3)CC2)C1 (relative stereo)	11
